# Earlier results in PMC7931226 (Pharmacology Research & Perspectives, 2021).
# System: P-gp (Mdr1a/b)
# Conditions: mouse genetic KO; cited from earlier work
structure (smiles),measurement,value
C=C[C@H]1C[N@@]2CC[C@H]1C[C@@H]2[C@@H](O)c1ccnc2ccc(OC)cc12 [quinidine],increase in Kp brain,12.4 fold
